Literature values as cited in article PMC5556379 (Journal of medicinal chemistry, 2017).

Tested on: cultured cells
Settings: cited from earlier work

CC1(C)CCC2=C(O1)c1ccccc1C(=O)C2=O [Compound 1, β-lapachone]
concentration required to induce cytotoxicity: 1 to 5 µM
